{"sequences": {"note": "Chains of the proteins cited; added tags and fusions are not shown.", "UniProt P51452, whole entry": "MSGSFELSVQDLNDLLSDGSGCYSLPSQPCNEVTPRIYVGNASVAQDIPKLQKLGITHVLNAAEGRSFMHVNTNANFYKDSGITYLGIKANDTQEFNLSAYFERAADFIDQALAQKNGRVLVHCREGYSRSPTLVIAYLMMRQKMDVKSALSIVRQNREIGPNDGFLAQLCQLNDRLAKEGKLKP"}, "source": "PubChem BioAssay AID1992", "about": "(Sanford-Burnham Center for Chemical Genomics, 2009)", "note": "Only a part is listed here, and it is no random draw. Some of these compounds have results that are not shown, active ones among them. Active and inactive are the calls of the source. No stated cut-off is given here; in the data, active means inhibition above about 60%; inactive means the rest.", "data": [{"biological_target": "Dual specificity protein phosphatase 3 (Homo sapiens) (UniProt P51452)", "assay": "human DUSP3 activity blockers – biochemical, colorimetric, HTS, primary screen (AID 1992)", "details": "recombinant VHR phosphatase, colorimetric substrate read-out; at 20 µM; hits give high values", "values": [{"smiles": "COc1ccc(OC)c(C=C(C#N)C#N)c1", "inhibition": "inactive: -10.6%"}]}]}
